Target: T1, Dimer of Gag-Pol polyprotein [489-587] (Human immunodeficiency virus 1, UniProt P12497)
T1 construct: 489-587
Assay: Protease Inhibition Assay
Conditions: pH 5; 22 °C
Description: HIV-1 protease was purified and refolded from E. coli inclusion bodies. The substrate used spans the p17-p24 processing site (R-V-S-Q-N-Y-P-I-V-Q-N-K) and was derivatized with biotin and fluorescein isothiocyanate (FITC) at the amino and carboxy termini. In the presence of HIV-l protease, the substrate is rapidly cleaved into two parts. The biotinylated amino terminal fragment binds to the avidin beads while the FITC-containing carboxy1 terminal fragment is removed through the membrane. […] The bound fluorescence is obtained by processing on an IDEXX Screen Machine. Determination of Ki values with this assay requires analysis under conditions in which substrate concentration resides substantially below Km and the inhibitor concentrations greatly exceeds the Ki value and the enzyme concentration.

With `O=c1oc2c(c(O)c1C(C1CC1)C1CC1)CCCCCC2` [3-(dicyclopropylmethyl)-4-hydroxy-2H,5H,6H,7H,8H,9H,10H-cycloocta[b]pyran-2-one] the Ki was 57 nM.
